Target: CB1 receptors (Rattus norvegicus, UniProt P20272)
Assay: Antagonism of WIN 55,212-2 induced hypothermia in vivo
Conditions: WIN 55,212-2 (3 mg/kg) as such
Description: The rectal temperature in the rat was determined by an electronic thermometer inserted at a 2 mm depth. The measurements were carried out on rats acclimated for one hour. The rectal temperature was determined before and after (from 30 to 120 minutes) the i.p. administration of the compound to be tested.
Each test was repeated on ten animals; the reported results are the average of the results obtained with the ten animals.

By UniProt entry, the sequences of proteins in these tests, tags left out.
UniProt P20272, whole entry: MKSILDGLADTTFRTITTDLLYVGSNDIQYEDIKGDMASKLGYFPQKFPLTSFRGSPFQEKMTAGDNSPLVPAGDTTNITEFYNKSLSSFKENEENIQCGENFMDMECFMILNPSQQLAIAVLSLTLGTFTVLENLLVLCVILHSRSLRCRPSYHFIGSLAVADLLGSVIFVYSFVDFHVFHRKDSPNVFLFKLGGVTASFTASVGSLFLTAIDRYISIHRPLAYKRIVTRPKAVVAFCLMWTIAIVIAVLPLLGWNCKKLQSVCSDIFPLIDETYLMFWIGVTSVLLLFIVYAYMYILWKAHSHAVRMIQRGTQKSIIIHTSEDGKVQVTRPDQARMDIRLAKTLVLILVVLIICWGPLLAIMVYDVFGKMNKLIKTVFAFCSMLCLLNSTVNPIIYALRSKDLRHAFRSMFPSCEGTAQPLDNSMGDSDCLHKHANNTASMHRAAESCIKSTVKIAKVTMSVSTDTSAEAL

Cc1c(C(=O)c2cccc3ccccc23)c2cccc3c2n1[C@H](CN1CCOCC1)CO3 [WIN 55,212-2, reference compound]
Body temperature (° C.) (0 min from WIN administration): 37.9 °C
Body temperature (° C.) (15 min): 35.6 °C
Body temperature (° C.) (30 min): 33.8 °C
Body temperature (° C.) (60 min): 34.5 °C
Body temperature (° C.) (90 min): 35.8 °C
Body temperature (° C.) (120 min): 36.8 °C
